Assay results published in BindingDB's records for patent US10730853 (XW LABORATORIES INC., 2020).

Protein sequences, listed by entry. Tags and fused reporters are not part of them. Lines headed by an entry give the natural chain unless they say otherwise; changes in a name come on top.
UniProt Q9Y5N1: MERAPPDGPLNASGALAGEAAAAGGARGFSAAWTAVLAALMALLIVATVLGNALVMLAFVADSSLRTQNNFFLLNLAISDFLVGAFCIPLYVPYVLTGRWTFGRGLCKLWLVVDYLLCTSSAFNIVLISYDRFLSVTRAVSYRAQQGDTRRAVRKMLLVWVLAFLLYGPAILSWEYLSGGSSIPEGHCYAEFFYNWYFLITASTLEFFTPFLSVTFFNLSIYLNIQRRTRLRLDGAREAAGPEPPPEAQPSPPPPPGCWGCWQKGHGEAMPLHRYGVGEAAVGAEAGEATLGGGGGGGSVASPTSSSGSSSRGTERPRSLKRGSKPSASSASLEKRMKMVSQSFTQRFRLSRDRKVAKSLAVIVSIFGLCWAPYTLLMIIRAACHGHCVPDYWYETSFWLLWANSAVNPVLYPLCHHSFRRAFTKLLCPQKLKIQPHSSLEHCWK

Target: Histamine H3 receptor (Homo sapiens, UniProt Q9Y5N1)
Assay: [35S]-GTPgammaS binding assay for determining inverse agonist
Description: Materials: GTPγS, [35S] […] Briefly, for membrane parathion, HEK293/Ga15/hH3R cells were grown to confluence, harvested and the cell pellets were suspended in TEL buffer (50 mM Tris-HCl buffer, 1 mM EGTA, 0.1 mM PMSF). Homogenate and centrifuge at 1,000 g for 10 min. Centrifuge the supernatant at 46,000 g for 30 min. Suspend the membrane pellet in 50 mM Tris with 0.32 M sucrose, pH 7.0. Aliquot at 1 mg protein/mL. Keep frozen and store at −80° C. until use. All compounds were prepared by dissolving in DMSO to make 10 mM stock. The 10 mM stock was used as top concentration (1 μM) to carry out 10-points, 3-fold dilution scheme using DMSO in a 96-well plate to make the compound dose plate. […] Stay on ice for 20 min. […] Incubate at room temperature for 60 min. Filter the assay plate on GF/C (non-PEI coated) plate to stop the assay. Dry GF/C plate for 1 h. […] IC50s were calculated using Prism5 with log(inhibitor) vs. response equation.

IC50: 17.6 nM
SMILES: Cc1nc2ccc(S(F)(F)(F)(F)F)cc2c(=O)n1-c1ccc(OCCCN2CCC[C@@H]2C)cc1 [US10730853, Compound XII]
